Values of other authors in patent publication EP4089093A1 (Eberhard Karls Universität Tübingen Medizinische Fakultät, priority 2021, dated 2022).

By UniProt entry, the sequences of proteins in these tests, tags left out.
UniProt P09874, whole entry: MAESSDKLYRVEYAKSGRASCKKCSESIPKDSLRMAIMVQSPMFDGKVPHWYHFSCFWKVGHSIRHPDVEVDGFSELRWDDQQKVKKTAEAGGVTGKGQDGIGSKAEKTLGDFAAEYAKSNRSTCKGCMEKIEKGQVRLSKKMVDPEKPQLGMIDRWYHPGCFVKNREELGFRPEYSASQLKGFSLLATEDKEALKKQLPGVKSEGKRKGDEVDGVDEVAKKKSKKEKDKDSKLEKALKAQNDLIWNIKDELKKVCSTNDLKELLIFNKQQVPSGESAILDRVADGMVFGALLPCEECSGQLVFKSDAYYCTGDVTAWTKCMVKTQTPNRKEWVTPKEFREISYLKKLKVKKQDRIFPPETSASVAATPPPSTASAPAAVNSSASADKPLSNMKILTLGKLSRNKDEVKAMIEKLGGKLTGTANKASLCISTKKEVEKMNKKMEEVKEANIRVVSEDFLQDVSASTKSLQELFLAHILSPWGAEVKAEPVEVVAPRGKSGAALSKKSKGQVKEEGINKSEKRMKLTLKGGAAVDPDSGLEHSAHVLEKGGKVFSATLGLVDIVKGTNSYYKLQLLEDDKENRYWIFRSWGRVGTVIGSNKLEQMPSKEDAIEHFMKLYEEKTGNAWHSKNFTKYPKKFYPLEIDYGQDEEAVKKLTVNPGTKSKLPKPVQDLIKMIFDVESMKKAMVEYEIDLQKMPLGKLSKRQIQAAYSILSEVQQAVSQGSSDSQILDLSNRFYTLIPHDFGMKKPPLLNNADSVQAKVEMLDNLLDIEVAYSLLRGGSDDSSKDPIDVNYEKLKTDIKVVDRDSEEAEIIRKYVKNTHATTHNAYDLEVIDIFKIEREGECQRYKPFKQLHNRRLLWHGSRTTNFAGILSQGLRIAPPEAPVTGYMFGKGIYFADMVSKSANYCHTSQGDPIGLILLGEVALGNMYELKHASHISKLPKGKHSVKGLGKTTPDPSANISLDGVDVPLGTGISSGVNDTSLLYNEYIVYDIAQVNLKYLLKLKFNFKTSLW

Biological target: PARP1 (Homo sapiens, UniProt P09874)
Conditions: relative to talazoparib

Question: For `Cn1ncnc1[C@@H]1c2n[nH]c(=O)c3cc(F)cc(c23)N[C@H]1c1ccc(F)cc1` [LT-674], which “potency of the (8R, 9S)-enantiomer compared with the (8S, 9R)-enantiomer (talazoparib)” value is on record?
Answer: Its value is “less active by several orders of magnitude”.
